The record followed here is patent US12397059B2, “Compounds and methods for the treatment and prevention of fibrotic disease states and cancer” (Purdue Research Foundation, priority 2019, dated 2025).

For one data set, the system named is healthy mice. To be noted: mouse, in vivo.
For data set [1], the system named is BM-induced experimental pulmonary fibrosis in mice. The following applies: mouse, in vivo. As to the method: Studies were also performed to determine if macrophages in pulmonary fibrotic lungs might be specifically targeted with folate-linked drugs in vivo. […] (The BM model is widely regarded to be helpful in terms of enabling mechanistic investigations relevant to fibrogenesis in an in vivo context.)
More specifically, eight-week-old C57BL6 male mice from Charles River (average weight 22 g to 25 g) were housed under pathogen-free conditions at room temperature (22° C.) under a 12 hours light-dark cycle. Mice were placed on a folate deficient chow (Envigo Teklad Global Rat Food Pellets) for 1 week prior to the BM or PBS instillation. Fresh water and folate-deficient diet were freely available. […]
Thereafter, the mice were anesthetized with ketamine/xylazine and the necks of the mice were shaved using hair remover lotion and then sterilized with 70% alcohol. […] Body weights were monitored every other day throughout the experiment. […]
For the subsequent HYP analysis, 10 μl of sample was transferred into a 96-well plate and neutralized with 10 μl of 5.3 M sodium hydroxide solution. […] The absorbance was measured at 560 nm (A560) within 15 min. […]
Two doses were given every other day till day 21. […] Mice were then sacrificed on day 21 and subjected immediately to bronchoalveolar lavage followed by resection of the lungs for immunohistochemistry and quantitation of collagen and hydroxyproline.

In the case of `CCCCc1nc2c(N)nc3ccccc3c2n1CC(C)(C)O` [Compound 1A, 1-(4-Amino-2-butyl-1H-imidazo[4,5-c]quinolin-1-yl)-2-methylpropan-2-ol], the “systemic cytokine release (plasma IL-6, IFNα, TNFα)” value in the data set on healthy mice is listed as “stimulates systemic cytokine release”. In data set [1], the weight loss is given as over 25%.
